{"source": "patent US20260102468A1", "about": "“COMPOSITIONS AND METHODS FOR MARCO INHIBITION AND IMPROVED DRUG DELIVERY” (BOARD OF REGENTS, THE UNIVERSITY OF TEXAS SYSTEM, priority 2022, published 2026)"}
{"smiles": "COc1cccc2c1C(=O)c1c(O)c3c(c(O)c1C2=O)C[C@@](O)(C(=O)CO)C[C@@H]3O[C@H]1C[C@H](N)[C@H](O)[C@H](C)O1", "note": "[doxorubicin]", "values": [{"measurement": "organ distribution of doxorubicin", "setting": "ex vivo fluorescence imaging after liposomal doxorubicin", "value": "most of the doxorubicin was taken up by the liver"}, {"measurement": "relative tumor/liver doxorubicin concentration, young versus old", "setting": "total emission normalized by organ weight", "value": "more drugs had been delivered to the tumor in the young mice relative to the liver of the old mice"}]}
